scFv variants of Ab-95 (light chain) against a SARS-CoV-2 spike peptide

The measurements come from Engelhart et al. 2022 (doi:10.1038/s41597-022-01779-4) through the FLAb antibody collection.

Target: peptide PDVDLGDISGINAS, taken from heptad repeat 2 (HR2) of SARS-CoV-2 spike.

Parent: Ab-95, a human scFv built as VH, a (GGGGS)3 linker, VL. Only the CDRs of the light chain vary.
VH: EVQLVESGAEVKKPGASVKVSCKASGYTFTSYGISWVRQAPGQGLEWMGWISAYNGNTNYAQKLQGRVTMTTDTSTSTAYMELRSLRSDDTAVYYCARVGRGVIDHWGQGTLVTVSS
VL: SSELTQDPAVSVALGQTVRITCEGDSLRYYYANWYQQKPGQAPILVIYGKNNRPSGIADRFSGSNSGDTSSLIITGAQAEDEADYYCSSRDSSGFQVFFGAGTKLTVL

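Library AAYL52 holds single substitutions and randomly drawn double and triple substitutions in the CDRs. In AlphaSeq, yeast of one mating type display the scFv and yeast of the other type display the target. After mating in shaken culture at 30 °C for 16 h, diploids were selected and their barcode pairs sequenced. The ratio of observed to expected reads was calibrated, replicate by replicate, on BCL2-family standards whose Kd was known from biolayer interferometry. The assay was run in three technical replicates.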

Variants are written as CDR1, CDR2 and CDR3 of the light chain (limits as in the source). Parent: EGDSLRYYYAN, GKNNRPS, SSRDSSGFQVF.
All variants listed here change N33 of the VL, counted from its first residue.
Kd is apparent (estimated from mating counts) and averaged on the log scale over replicates with a signal. Smaller is tighter.
"nd" means that the variant was in the library but no mating with the target was seen in any replicate; the authors take this as a sign of poor binding, and no number exists.
Background: pairings of library AAYL52 with three empty control strains gave a value in 28% of cases (median 8.2 µM, 5th percentile 800 nM). Values in that range, when seen in few replicates, are hard to tell from nonspecific mating.

Variant EADSLRYYYAG | GKNNRPS | SSRDSSGFQNF showed 3.2 µM (1 of 3 replicates). With EGDSLRYDYYV | GKNNRPS | SSRDSSGFQVF the result was 24 µM (1 of 3 replicates). Variant EGYSLRYYEAH | GKNNRPS | SSRDSSGFQVF showed 15 µM (2 of 3 replicates). Variant EGDSIRYYYAW | GKNNRPS | SSRDSSGFDVF showed nd (0 of 3 replicates). For EGDSLRYYYAR | GKNNEPS | SSRSSSGFQVF, the assay gave nd (0 of 3 replicates). With EGDSLRYLYAS | GKNNRPS | VSRDSSGFQVF the result was 22 µM (3 of 3 replicates). With EGDALRYYYAT | GKNNRPS | SSRKSSGFQVF the result was 130 nM (1 of 3 replicates). With EGDSLRYYYAY | GKLNRPS | SSRDSVGFQVF the result was 6.8 µM (1 of 3 replicates). Variant EGNSHRYYYAK | GKNNRPS | SSRDSSGFQVF showed 38 µM (1 of 3 replicates).

Variant EGDSVRYYMAS | GKNNRPS | SSRDSSGFQVF gave 180 nM (3 of 3 replicates). Variant EGDSCRYYYAY | GKQNRPS | SSRDSSGFQVF showed nd (0 of 3 replicates). With EGDSLRYYYPQ | GKNNRPS | SSRDSSGYQVF the result was 860 nM (3 of 3 replicates). Variant EGDSERTYYAS | GKNNRPS | SSRDSSGFQVF gave 4.8 µM (1 of 3 replicates). For EGDSLEYYYAD | GKNNKPS | SSRDSSGFQVF, the assay gave 1.5 µM (1 of 3 replicates). Variant EGDSLRYYYAM | GGNNRPS | SSRDSSGFQTF gave nd (0 of 3 replicates). For EGDSLTYYYAF | GKNPRPS | SSRDSSGFQVF, the assay gave 8.3 µM (2 of 3 replicates). With EGDSLRYYYAT | GKNNRPS | CSRDSSGNQVF the result was 600 nM (3 of 3 replicates). For EGDSLGYYYAM | GKNNRPS | SSRESSGFQVF, the assay gave 600 nM (2 of 3 replicates).

Variant EPDSLRYYYAV | GKNNRPT | SSRDSSGFQVF showed 240 µM (2 of 3 replicates). For EGDSLRYYYAH | GKNNRPS | SSRDSSGEQVF, the assay gave 40 µM (2 of 3 replicates). Variant EGDSLRYYYAH | GKFNKPS | SSRDSSGFQVF showed 7.8 µM (1 of 3 replicates). With NGDSLRYYYCQ | GKNNRPS | SSRDSSGFQVF the result was 1.9 µM (3 of 3 replicates). With EGDSLRYYYAE | GKNNRPS | MSRDSSGFQVF the result was 4.1 µM (1 of 3 replicates). For EGDSLRYYYAT | GKNNRPS | SSRDSMGFMVF, the assay gave nd (0 of 3 replicates). With EGDSLRYYYAP | HKNNRPS | SSRDSSGFGVF the result was 6.1 µM (1 of 3 replicates). Variant EGDSLRIYYAW | GKNMRPS | SSRDSSGFQVF showed nd (0 of 3 replicates). With EGDSLRYYYAE | GKNNRPS | SSMDSSGFQVS the result was nd (0 of 3 replicates).

Variant EGDSLRYYYAT | GKNNRPS | SSRDSTGFKVF gave 4.1 µM (3 of 3 replicates). With EGDSLRYYYAI | GRNNRPS | SSRDSAGFQVF the result was nd (0 of 3 replicates). With EGDSLRYYQAF | GKNNRPS | SSRDSSGFQVF the result was 64 µM (1 of 3 replicates). With EGDSLRYYYAT | GKNNRPS | SSRDSSGFQWF the result was 1.7 µM (1 of 3 replicates).

Picked from the list: the 3 lowest averages where every replicate gave a value.

For EGDSVRYYMAS | GKNNRPS | SSRDSSGFQVF, the assay gave 180 nM (3 of 3 replicates).
For EGDSLRYYYAT | GKNNRPS | CSRDSSGNQVF, the assay gave 600 nM (3 of 3 replicates).
For EGDSLRYYYPQ | GKNNRPS | SSRDSSGYQVF, the assay gave 860 nM (3 of 3 replicates).